Experimental data: paper PMC12802956, “Dalbavancin dosing in a severely underweight person with prosthetic valve endocarditis: the critical role of proactive therapeutic drug monitoring” (Journal of Antimicrobial Chemotherapy, 2025)

Assay: Tolerability of earlier antibiotic therapy in the patient
Assay type: in vivo, human
Conditions: single patient, treatment before the start of dalbavancin
From the text: We report the case of a patient who required initiation of dalbavancin therapy in November 2024 for infective endocarditis of a biological aortic valve (replaced April 2024) caused by Corynebacterium striatum. […] Due to a high surgical risk, the patient was deemed ineligible for repeat cardiac surgery.

## daptomycin
  tolerability in the patient: well tolerated
